Binding of CDR-mutated scFvs to a peptide of the spike HR2 region

From the AlphaSeq antibody data of Engelhart et al. 2022 (doi:10.1038/s41597-022-01779-4), copy in the FLAb collection.

Antigen: PDVDLGDISGINAS, a 14-residue peptide of the SARS-CoV-2 spike HR2 region.

Parent scFv Ab-91: VL joined to VH by the linker GGGGSGGGGSGGGGS. Changes lie in the heavy chain CDRs alone.
VL: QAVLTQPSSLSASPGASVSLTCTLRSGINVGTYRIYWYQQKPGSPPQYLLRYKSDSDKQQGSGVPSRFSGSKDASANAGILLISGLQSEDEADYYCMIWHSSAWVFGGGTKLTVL
VH: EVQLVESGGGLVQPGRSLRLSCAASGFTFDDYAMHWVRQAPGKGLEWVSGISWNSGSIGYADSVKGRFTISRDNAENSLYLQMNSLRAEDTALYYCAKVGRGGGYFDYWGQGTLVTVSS

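The parent was found by panning a naive human phage display library on the peptide. AAYL51 was designed without a model: most single CDR substitutions and a random sample of double and triple ones. The assay is AlphaSeq: two haploid yeast populations carry antibody and antigen on their surface. Mating (16 h, 30 °C) was followed by selection of diploids and sequencing of their barcodes. Each replicate has its own calibration line, from reference interactions of the BCL2 family. Each pool was mated in three replicate cultures.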

Substitutions are numbered in sequence along the VH above, starting at 1 (not Kabat).
This list gathers variants with a substitution at G59 (VH, numbered from residue 1).
Values are apparent Kd, the geometric mean of the replicates that gave a signal; lower means stronger binding.
An entry "nd" has no value in the source: the pair was not observed among the diploids in any replicate. This suggests poor binding but is not conclusive.
In this assay the parent's reference entry averaged 72 nM; its copy inside this library read 7.5 nM.

The variant G50E+G59M+Y108T showed 80 µM (1 of 3 replicates; controls 5 of 9). For G59R+V99E, the assay gave 19 µM (1 of 3 replicates; controls 0 of 9). The variant F27W+M34W+G59K showed 700 µM (2 of 3 replicates; controls 3 of 9). The variant G59W+Y60A+R101I gave 140 µM (2 of 3 replicates; controls 3 of 9). With D30Q+M34Y+G59P the result was nd (0 of 3 replicates; controls 1 of 9). For A33T+S55Q+G59S, the assay gave 4.2 µM (3 of 3 replicates; controls 1 of 9). For G59W+S63P, the assay gave 4.6 µM (1 of 3 replicates; controls 2 of 9). The variant I51A+G59Y+R101M showed 190 µM (1 of 3 replicates; controls 3 of 9). The variant F29V+G59F+D62V gave 61 µM (1 of 3 replicates; controls 5 of 9).

The variant H35G+G59V+Y105F showed nd (0 of 3 replicates; controls 1 of 9). The variant G59N+G102P+D107Q gave nd (0 of 3 replicates; controls 0 of 9). The variant I51C+G59A+G103T showed nd (0 of 3 replicates; controls 1 of 9). The variant G56M+G59P+R101S gave nd (0 of 3 replicates; controls 1 of 9). The variant Y32A+S55I+G59K showed nd (0 of 3 replicates; controls 0 of 9). The variant T28L+G59A showed nd (0 of 3 replicates; controls 0 of 9). For S57Y+G59R+D62N, the assay gave 11 µM (1 of 3 replicates; controls 0 of 9). For G59R+D107L, the assay gave 910 µM (2 of 3 replicates; controls 9 of 9). The variant G50M+G59T+R101A showed 380 µM (3 of 3 replicates; controls 7 of 9).

With F27A+H35A+G59W the result was 61 µM (2 of 3 replicates; controls 6 of 9). The variant G59E+K65D gave 23 µM (1 of 3 replicates; controls 2 of 9). With G50S+G59S+R101N the result was 740 µM (1 of 3 replicates; controls 1 of 9). The variant G59V+S63H+G104Q showed nd (0 of 3 replicates; controls 0 of 9). The variant G59C gave 37 µM (3 of 3 replicates; controls 1 of 9). The variant F29L+G59H+R101E showed 35 µM (1 of 3 replicates; controls 2 of 9). With G59V+R101W+G104C the result was 1.7 µM (1 of 3 replicates; controls 0 of 9). For S52H+G59K+V64S, the assay gave nd (0 of 3 replicates; controls 0 of 9). With G56K+G59E+G103M the result was nd (0 of 3 replicates; controls 4 of 9).

For I58K+G59A+Y105Q, the assay gave 380 µM (2 of 3 replicates; controls 6 of 9). With N54K+G59N+D107A the result was 50 µM (1 of 3 replicates; controls 5 of 9). The variant G59M+Y60A+D107P gave nd (0 of 3 replicates; controls 0 of 9). For A33C+G59E+Y108M, the assay gave 47 µM (2 of 3 replicates; controls 4 of 9). The variant N54R+G59F gave 50 µM (3 of 3 replicates; controls 8 of 9). The variant T28R+S55P+G59R showed 19 µM (2 of 3 replicates; controls 1 of 9). The variant G59T+D107V showed nd (0 of 3 replicates; controls 3 of 9). With Y32I+G59P+Y108M the result was 180 µM (1 of 3 replicates; controls 3 of 9). The variant G59P+A61I+V64M showed 1.9 µM (1 of 3 replicates; controls 1 of 9).

The variant G59T+V99H+R101C showed 400 µM (3 of 3 replicates; controls 3 of 9). For A33Y+G59L+Y60E, the assay gave nd (0 of 3 replicates; controls 1 of 9). With G50A+G59M+V64Q the result was nd (0 of 3 replicates; controls 0 of 9). For G59D+Y60C+S63V, the assay gave 67 µM (3 of 3 replicates; controls 6 of 9). The variant S55N+G59F+K65V showed 82 µM (1 of 3 replicates; controls 1 of 9). The variant F29G+Y32I+G59S gave 19 µM (1 of 3 replicates; controls 1 of 9). The variant D31H+H35R+G59L gave 32 µM (1 of 3 replicates; controls 4 of 9). For G59P+G100M+G102H, the assay gave 800 µM (2 of 3 replicates; controls 4 of 9). The variant G59I+G102L gave nd (0 of 3 replicates; controls 0 of 9).

For T28V+D30C+G59Q, the assay gave 66 µM (3 of 3 replicates; controls 8 of 9). The variant H35D+N54F+G59V gave 180 µM (2 of 3 replicates; controls 2 of 9). For G59S+D62P, the assay gave 5.9 µM (2 of 3 replicates; controls 4 of 9). The variant A33R+G50S+G59L gave 170 µM (1 of 3 replicates; controls 2 of 9). With G56Q+S57T+G59L the result was nd (0 of 3 replicates; controls 3 of 9). For H35P+G59H, the assay gave nd (0 of 3 replicates; controls 1 of 9). The variant S52Q+G59I+V99P gave 210 µM (3 of 3 replicates; controls 6 of 9).

Background: pairings of library AAYL51 with three empty control strains gave a value in 21% of cases (median 34 µM, 5th percentile 1.8 µM). Values in that range, when seen in few replicates, are hard to tell from nonspecific mating. For each scFv, signals with the empty controls are counted beside the result.